The assay deals with neuropilin 1 isoform b, recombinant, C-terminal His tag (Sino Biological 10011-H08H) (human) (UniProt O14786). Put plainly: flow cytometry of protein-coated microbeads (Ig-coated bead test).

For orientation: IC50 means the concentration at which inhibition is half-maximal.

“vascular endothelial growth factor A165, His-tagged, dimer form (ligand)”: the IC50 is 410 nM.

Values taken from article PMC10477481 (The Journal of Biological Chemistry, 2023).
